Test results as given in patent US9822115B2, “Nitrogen containing compounds and their use as antibacterial agents” (WOCKHARDT LIMITED, priority 2014, dated 2017).

System: K. pneumoniae H521 (KPC, SHV, TEM)
Test: Antibacterial activity, MIC by agar dilution (CLSI)
Assay type: cell-based
Details: Table 2
Description: The biological activity of representative compounds according to the invention against various bacterial strains was investigated. In a typical study, overnight grown bacterial cultures were diluted appropriately and inoculated on the agar media containing doubling dilutions of the test compounds. Observations for growth or no growth was performed after 16-20 hours of incubation at 35±2° C. in the ambient air. The overall procedure was performed as per Clinical and Laboratory Standards Institute (CLSI) recommendations, (Clinical and Laboratory Standards Institute (CLSI), Performance Standards for Antimicrobial Susceptibility Testing, 20th Informational Supplement, M07-A9, Volume 32, No. 2, 2012). Molten Mueller Hinton Agar (BD, USA) containing serial dilutions of each antibacterial agent were poured on to the plates and allowed to solidify. […]
The strains selected for study included E. coli NCTC 13353 producing CTX-M15 and OXA-1 beta-lactamase enzymes; K. pneumoniae H521 producing KPC, SHV, TEM beta-lactamase enzymes; and K. pneumoniae S48 producing NDM, SHV, TEM beta-lactamase enzymes. The activities are expressed as Minimum Inhibitory Concentrations (MICs) (mcg/ml).

## sodium salt of (2S,5R)-succinic acid tert-butyl ester 4-{2-oxo-2-[N′-(7-oxo-6-sulphooxy-1,6-diaza-bicyclo[3.2.1]octane-2-carbonyl)-hydrazino]ethyl}-phenyl ester [Example 27]
  MIC: 16 µg/mL
